Reference: PubChem BioAssay AID485 (The Scripps Research Institute Molecular Screening Center, 2006)
This is a selection; strong and weak results do not stand in their true shares. Activity calls are given as the source filed them.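 The calls were made as follows: active = inhibition above the plate cutoff, the mean inhibition of test wells on that plate plus 3 SD (cut at about 28% in these data); inactive = the rest.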

Protein sequences, listed by entry. Tags and fused reporters are not part of them. Lines headed by an entry give the natural chain unless they say otherwise; changes in a name come on top.
UniProt Q99500: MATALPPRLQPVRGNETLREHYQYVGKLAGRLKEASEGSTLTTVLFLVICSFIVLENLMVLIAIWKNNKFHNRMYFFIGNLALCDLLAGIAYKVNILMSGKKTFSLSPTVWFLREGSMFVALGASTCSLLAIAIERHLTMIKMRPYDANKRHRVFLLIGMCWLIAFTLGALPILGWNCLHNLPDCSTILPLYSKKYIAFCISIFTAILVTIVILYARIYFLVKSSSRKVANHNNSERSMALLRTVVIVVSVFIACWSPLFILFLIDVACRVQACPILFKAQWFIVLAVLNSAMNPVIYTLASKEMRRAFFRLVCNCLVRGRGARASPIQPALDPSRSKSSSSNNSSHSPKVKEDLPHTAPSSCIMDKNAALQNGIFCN

Each molecule was assayed against Sphingosine 1-phosphate receptor 3 (Homo sapiens) (UniProt Q99500) (assay: S1P3 receptor antagonists, primary screen, cell-based (AID 485;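 also: cells challenged with S1P at its EC80 of 0.8 µM; blue over green emission ratio from cleaved BLA substrate after 4 h stimulation; 0% = S1P-stimulated wells and 100% = unstimulated DMSO-only wells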)). Conditions: CHO S1P3 NFAT-BLA reporter, FRET fluorescence, antagonist mode; at 4.98 µM; hits give high values.
With CC(=O)Nc1ccc([As](=O)(O)O)cc1 the inhibition was inactive: -9.47%. With O=P(Nc1nc2ccc(Cl)cc2s1)(c1ccccc1)c1ccccc1 the inhibition was inactive: 0.91%. Cc1ccc(NP(=O)(Oc2ccccc2F)Oc2ccccc2F)nc1 was tested, and the inhibition was inactive: 5.46%. CCOP(=O)(Nc1ccccc1)OCC was tested, and the inhibition was inactive: -6.11%. For Cc1cc(SC(NC(=O)c2ccc(F)cc2)C(Cl)(Cl)Cl)ncn1 (centres undefined), the inhibition was inactive: -1.25%. For CCN(N=Nc1nonc1N)c1nonc1N, the inhibition was inactive: 0.85%. With Nc1cccc2ccc([As](=O)(O)O)cc12 the inhibition was inactive: 2.15%. In the case of NC(=O)c1cc([N+](=O)[O-])cc([N+](=O)[O-])c1N, the inhibition is reported as inactive: 2.08%. In the case of Cc1ccc(N/C(=N/P(=O)(N2CCOCC2)N2CCOCC2)N2CCOCC2)cc1, the inhibition is reported as inactive: -5.32%. Cc1ccc(OP(=O)(Nc2nccs2)Oc2ccc(C)cc2)cc1 was tested, and the inhibition was inactive: 0.7%. COc1ccccc1OP(=O)(Nc1ccc(C)cn1)Oc1ccccc1OC was tested, and the inhibition was inactive: -2.46%. For Clc1ccc(Cl)c(NC2=NCC(CBr)S2)c1 (centres undefined), the inhibition was inactive: -17.4%. For Nc1cc(N)c2nonc2c1[N+](=O)[O-], the inhibition was inactive: 12.2%. Cc1c2non([O-])c-2c(C)[n+](=O)[n+]1[O-] was tested, and the inhibition was inactive: -39.2%. O=C(NC(Sc1ccncn1)C(Cl)(Cl)Cl)c1ccccc1 (centres undefined) was tested, and the inhibition was inactive: -7.03%. With COc1ccc(C2=NCC(CBr)S2)cc1 (centres undefined) the inhibition was inactive: -6.36%. In the case of O=[N+]([O-])c1cc([N+](=O)[O-])c(CCNc2ccccc2)c([N+](=O)[O-])c1, the inhibition is reported as inactive: -0.84%. In the case of CCc1nc2c(n1)c1c(non1O)c1c2no[n+]1[O-], the inhibition is reported as inactive: 16.6%. Cc1ccc(NP(=O)(Oc2ccccc2)Oc2ccccc2)nc1 was tested, and the inhibition was inactive: 3.15%. For C[N+]1=C2C=CC=CC=C2SC12C([N+](=O)[O-])=CC([N+](=O)[O-])=C[C-]2[N+](=O)[O-] (centres undefined), the inhibition was inactive: -0.39%. With Nc1ccc([As](=O)(O)c2ccc(N)cc2)cc1 the inhibition was inactive: 7.99%. CCN(/C(=N/P(=O)(N1CCOCC1)N1CCOCC1)N1CCOCC1)c1ccc(OC)cc1 was tested, and the inhibition was inactive: 6.25%. CN(C)C(=O)OCCc1n(C)cc[n+]1C was tested, and the inhibition was inactive: 5.88%. In the case of CC(C)=N/N=C(\N)N[N+](=O)[O-], the inhibition is reported as inactive: -11.7%. With O=C(Nc1cc([As](=O)(O)O)ccc1O)c1ccccc1 the inhibition was inactive: -1.49%. For CC(C)(C)C(=O)NC(Sc1ccncn1)C(Cl)(Cl)Cl (centres undefined), the inhibition was inactive: -11.9%. O=[N+]([O-])c1ncn(CCn2ncnc2[N+](=O)[O-])n1 was tested, and the inhibition was inactive: -7.71%. In the case of O=[N+]([O-])c1cccc(NC2=NCC(CBr)S2)c1 (centres undefined), the inhibition is reported as inactive: -9.42%. With O=C(O)CNc1ccc([As](=O)(O)O)cc1 the inhibition was inactive: -2.9%. In the case of O=P(Nc1ccccn1)(c1ccc(Br)cc1)c1ccc(Br)cc1, the inhibition is reported as inactive: -5.63%. O=P(Nc1nc2ccccc2s1)(c1ccccc1)c1ccccc1 was tested, and the inhibition was inactive: -21.4%. For O=[N+]([O-])c1ncn(CCn2cnc([N+](=O)[O-])n2)n1, the inhibition was inactive: -3.13%. In the case of CC(=O)NC(SC(=S)N(C)C)C(Cl)(Cl)Cl (centres undefined), the inhibition is reported as inactive: 3.91%. For O=[As](O)(c1ccccc1)c1ccc(O)cc1, the inhibition was inactive: -2.02%. With Nc1ccc([As](=O)(O)c2ccc([N+](=O)[O-])cc2)cc1 the inhibition was inactive: 0.16%. In the case of C(Cc1nn[nH]n1)Cc1nn[nH]n1, the inhibition is reported as inactive: 1.73%. With O=C(OC1CN2CCC1CC2)c1cccc(Cl)c1 (centres undefined) the inhibition was inactive: -11%. For O=P(Nc1nccs1)(c1ccccc1)c1ccccc1, the inhibition was inactive: 2.9%. For CC(C)C(=O)NC(Sc1ccccc1)C(Cl)(Cl)Cl (centres undefined), the inhibition was inactive: -4.47%. With c1nnnn1CCn1cnnn1 the inhibition was inactive: -22.6%. With CCOc1ccc(C2=NCC(CBr)S2)cc1 (centres undefined) the inhibition was inactive: 4.7%. O=P1(Nc2nc3ccc(Cl)cc3s2)COc2ccccc2O1 (centres undefined) was tested, and the inhibition was inactive: -24.5%. For CC(C)(C)C(=O)NC(Sc1ccccc1)C(Cl)(Cl)Cl (centres undefined), the inhibition was inactive: -0.89%. With CC(=O)Nc1ccc(Oc2c([N+](=O)[O-])cc([N+](=O)[O-])cc2[N+](=O)[O-])cc1 the inhibition was inactive: -9.88%. CC(=O)Nc1ccc([As](=O)(O)O)c(O)c1 was tested, and the inhibition was inactive: -1.73%. For O=C(NC1CCS(=O)(=O)C1)NP(=S)(Oc1ccccc1)Oc1ccccc1 (centres undefined), the inhibition was inactive: -11.2%. For CCNC(=S)/N=C(\N)N[N+](=O)[O-], the inhibition was inactive: -9.96%. Cc1ccc(NP(=O)(Oc2cccc(C)c2)Oc2cccc(C)c2)nc1 was tested, and the inhibition was inactive: -17.1%. For c1ccc(-c2nn[nH]n2)c(-c2nn[nH]n2)c1, the inhibition was inactive: -5.52%. With Cc1ccc(OP(=O)(Nc2ccccn2)Oc2ccc(C)cc2)cc1 the inhibition was inactive: -10.8%. CC(=O)NC(SC(=S)N(CC(C)C)CC(C)C)C(Cl)(Cl)Cl (centres undefined) was tested, and the inhibition was active: 58.8%. With CN(C)C(=O)Oc1noc2ccccc12 the inhibition was inactive: -12.1%. For O=c1c2cc([N+](=O)[O-])ccc2[nH]c2c([N+](=O)[O-])cc([N+](=O)[O-])cc12, the inhibition was inactive: -18.9%. For Cc1ccccc1OP(=O)(Nc1ccccn1)Oc1ccccc1C, the inhibition was inactive: 7.38%.
